The values below are quoted from earlier work in patent publication US20150231209A1, “STIMULATION OF OVARIAN FOLLICLE DEVELOPMENT AND OOCYTE MATURATION” (THE BOARD OF TRUSTEES OF THE LELAND STANFORD JUNIOR …, priority 2012, published 2015).

What is called half-life is how long it takes for the measured level to halve.

For this data set the following is noted: cited from earlier work.

On to “native FSH: dimeric glycoprotein hormone synthesized and secreted by gonadotropes in the anterior pituitary gland”, for which the half-life (in vivo) was 3 to 4 h.

As to “hCG: glycoprotein of 244 amino acids, used as an LH substitute”, where the note is “compared with the native hormone (FSH; LH)”, the “half-life, in words” value is “longer half-life than LH”.
